In US20230365568A1, “PLK1 POLO BOX DOMAIN INHIBITORS AND METHOD OF TREATING CANCER” (The United States of America,as represented by the …, priority 2020, published 2023):

Tested on: HeLa cells
Experiment: Mitotic arrest and antiproliferation in HeLa cells (DAPI staining, cell counts)
Assay type: cell-based
Conditions: 100 μM

Row | Structure (SMILES) | induction of mitotic arrest (rounded cells with apoptotic or aberrant chromosome morphologies)
1 | CCCn1c(=O)c2ccccc2n2c(SC)nnc12 [compound 143, 1-(methylthio)-4-propyl-[1,2,4]triazolo[4,3-a]quinazolin-5(4H)-one] | effectively induced rounded cells with apoptotic or aberrant chromosome morphologies
2 | CCCn1c(=O)c2cccc(F)c2n2c(SC)nnc12 [compound 145, 9-fluoro-1-(methylthio)-4-propyl-[1,2,4]triazolo[4,3-a]quinazolin-5(4H)-one] | effectively induced rounded cells with apoptotic or aberrant chromosome morphologies
